Here are results for 1 substance from doi:10.1101/2022.03.10.483824.

Protein sequences, listed by entry. Tags and fused reporters are not part of them. Lines headed by an entry give the natural chain unless they say otherwise; changes in a name come on top.
UniProt P04461: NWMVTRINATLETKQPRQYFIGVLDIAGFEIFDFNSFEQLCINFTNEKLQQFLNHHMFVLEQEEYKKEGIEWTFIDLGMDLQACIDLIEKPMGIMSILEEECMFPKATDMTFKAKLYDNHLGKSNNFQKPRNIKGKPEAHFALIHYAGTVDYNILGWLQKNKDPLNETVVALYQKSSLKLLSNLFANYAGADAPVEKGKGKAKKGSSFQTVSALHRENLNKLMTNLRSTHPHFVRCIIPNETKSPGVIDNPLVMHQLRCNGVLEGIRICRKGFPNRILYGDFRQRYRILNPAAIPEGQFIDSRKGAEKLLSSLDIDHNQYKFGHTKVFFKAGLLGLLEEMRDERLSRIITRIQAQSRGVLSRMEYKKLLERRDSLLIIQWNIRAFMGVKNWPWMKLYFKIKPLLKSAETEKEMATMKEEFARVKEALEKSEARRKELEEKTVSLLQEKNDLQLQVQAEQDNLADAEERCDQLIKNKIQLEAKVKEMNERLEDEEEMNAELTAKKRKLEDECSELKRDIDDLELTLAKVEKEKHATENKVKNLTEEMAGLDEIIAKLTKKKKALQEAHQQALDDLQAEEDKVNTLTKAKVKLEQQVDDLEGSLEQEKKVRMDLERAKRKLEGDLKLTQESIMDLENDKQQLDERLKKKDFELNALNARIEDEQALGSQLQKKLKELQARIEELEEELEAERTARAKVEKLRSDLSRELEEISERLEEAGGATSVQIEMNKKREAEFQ

This test has as its target Full length native slow skeletal myosin II from rabbit M. soleus (rabbit) (UniProt P04461). Briefly: optical trapping.

For “Biotinylated actin filament (chicken G actin polymerised with biotinylated G actin) (from UniProt P68139 1-377) (natural protein)”, the maximum AM detachment rate (kcat, at saturating ATP) was found to be 29.3 s⁻¹.
